Laboratory results: patent US20110250133A1, “GASTRIN RELEASING PEPTIDE COMPOUNDS” (priority 2003, published 2011)

Chains of the proteins cited; added tags and fusions are not shown. Lines headed by an entry give the natural chain unless they say otherwise; changes in a name come on top.
UniProt P30550: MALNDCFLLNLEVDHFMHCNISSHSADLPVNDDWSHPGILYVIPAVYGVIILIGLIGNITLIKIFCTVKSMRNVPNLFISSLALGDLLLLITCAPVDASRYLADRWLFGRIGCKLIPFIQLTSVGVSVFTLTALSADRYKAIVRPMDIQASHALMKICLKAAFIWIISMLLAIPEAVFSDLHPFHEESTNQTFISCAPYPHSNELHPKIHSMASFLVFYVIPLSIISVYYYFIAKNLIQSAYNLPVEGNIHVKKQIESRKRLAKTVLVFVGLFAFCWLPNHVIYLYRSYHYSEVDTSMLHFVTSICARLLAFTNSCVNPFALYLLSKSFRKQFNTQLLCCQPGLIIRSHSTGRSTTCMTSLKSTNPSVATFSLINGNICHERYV
UniProt P32247: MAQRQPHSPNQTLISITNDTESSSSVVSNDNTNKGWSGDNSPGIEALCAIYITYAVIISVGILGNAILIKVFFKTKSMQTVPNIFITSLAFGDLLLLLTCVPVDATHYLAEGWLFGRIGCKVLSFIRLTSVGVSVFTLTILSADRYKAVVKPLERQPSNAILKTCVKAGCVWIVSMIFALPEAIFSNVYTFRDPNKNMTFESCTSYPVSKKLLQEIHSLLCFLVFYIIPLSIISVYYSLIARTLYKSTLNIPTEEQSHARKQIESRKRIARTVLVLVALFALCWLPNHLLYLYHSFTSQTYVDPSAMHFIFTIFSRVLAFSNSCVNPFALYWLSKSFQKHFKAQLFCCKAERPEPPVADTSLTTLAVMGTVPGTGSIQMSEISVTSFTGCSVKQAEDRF

Key:
[1] = system: PC3 tumor-bearing nude mice; assay type: in vivo, mouse; details: 177Lu-labeled, compared with control DO3A-monoamide-Aoc-QWAVGHLM-NH2
[2] = system: human PC-3 nude mouse model; assay type: in vivo; details: 177Lu complex, i.v.
GRP-R = biological target: T1, GRP-R (Homo sapiens, UniProt P30550); assay: Competition studies of modified BBN analogs with 125I-BBN for GRP-R in PC3 cells (Example LXI); assay type: binding
T1 construct: host or cells: PC3 (PC-3) human prostate cancer cells, intact adherent cells

NMB-R = biological target: T2, NMB-R (Rattus norvegicus, UniProt P24053); assay: Competition with 125I-NMB for NMB-R in C6 cells (linker specificity); assay type: binding, rodent; details: Table 16;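 further: test cells: rodent glioblastoma C6 line carrying NMB-R, human prostate cancer PC3 line carrying GRP-R, affinity fitted by one-site competition nonlinear regression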
T2 construct: C6, an NMB-R expressing rodent glioblastoma cell line; host or cells: C6 glioblastoma cells, intact adherent cells
T2 sequence (P24053 1-390): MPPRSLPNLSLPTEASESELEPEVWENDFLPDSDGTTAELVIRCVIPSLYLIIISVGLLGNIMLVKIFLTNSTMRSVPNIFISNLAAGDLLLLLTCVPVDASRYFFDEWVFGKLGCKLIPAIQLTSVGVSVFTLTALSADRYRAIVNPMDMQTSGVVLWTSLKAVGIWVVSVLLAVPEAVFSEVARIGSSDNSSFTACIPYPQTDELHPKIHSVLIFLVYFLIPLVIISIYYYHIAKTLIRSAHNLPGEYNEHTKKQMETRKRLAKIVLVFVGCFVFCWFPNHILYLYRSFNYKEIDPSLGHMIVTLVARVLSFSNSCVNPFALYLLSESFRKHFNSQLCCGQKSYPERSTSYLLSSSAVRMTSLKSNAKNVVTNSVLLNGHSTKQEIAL

[3] = biological target: human bombesin receptor subtype 3 (BB3-R) (human) (UniProt P32247); assay: competition with 125I-universal ligand, receptor autoradiography on human cancer tissue
[4] = Table 16, read-out: IC50 PC3/GRP-R

**Q.** Which results are given for “N-[4-[[[[[4,7,10-Tris(carboxymethyl)-1,4,7,10-tetraazacyclododec-1-yl]acetyl]amino]acetyl]amino]benzoyl]-L-glutaminyl-L-tryptophyl-L-alanyl-L-valyl-glycyl-L-histidyl-L-leucyl-L-methioninamide [Compound L70]”?
**A.** uptake in the mouse pancreas [1]: much higher; Blood 24 h % ID ([2]; 24 h): 0.02 ± 0.00 % ID; Blood 7 d % ID ([2]; 7 d): 0.00 ± 0.00 % ID

**Q.** “N-[(3β,5β,12α)-3-[[[4,7,10-Tris(carboxymethyl)-1,4,7,10-tetraazacyclododec-1-yl]acetyl]amino]-glycyl-4-aminobenzoyl-L-leucyl-L-tryptophyl-L-alanyl-L-threonyll-glycyl-L-histidyl-L-phenylalanyl-L-methioninamide [Compound L227]” was tested. Which IC50 (GRP-R; [4]) did it give?
**A.** The IC50 was 28 nM.

**Q.** With yGNLWATGHFM-NH2 as the substance, how does the IC50 (NMB-R) read?
**A.** The IC50 was 0.00016 µM.

**Q.** What about the IC50 (GRP-R; Table 15, read-out: IC50 [nM], competition with 125I-BBN for GRP-R in PC3 cells) of the same substance?
**A.** Its IC50 is 450 nM.

**Q.** And the IC50 (GRP-R; [4])?
**A.** Its IC50 is 885 nM.

**Q.** Which IC50 (GRP-R; Table 17, read-out: IC50 PC3/GRP-R) does the source give for “N-[(3β,5β,12α)-3-[[[4,7,10-Tris(carboxymethyl)-1,4,7,10-tetraazacyclododec-1-yl]acetyl]amino]-glycyl-4-aminobenzoyl-L-glutaminyl-L-tryptophyl-L-alanyl-glycyl-L-histidyl-L-phenylalanyl-L-leucinamide [Compound L224]” here?
**A.** The IC50 was over 500 nM.

**Q.** For “N-[(3β,5β,12α)-3-[[[4,7,10-Tris(carboxymethyl)-1,4,7,10-tetraazacyclododec-1-yl]acetyl]amino]-glycyl-4-aminobenzoyl-L-leucyl-L-tryptophyl-L-alanyl-L-valinyl-glycyl-L-serinyl-L-phenylalanyl-L-methioninamide [Compound L225]”, which IC50 (GRP-R; [4]) is on record?
**A.** Its IC50 is 240 nM.

**Q.** “[DTyr6, βAla11, Phe13, Nle14]-BBN(6-14) (peptide)” was tested. Which IC50 [3] did it give?
**A.** Its IC50 is 0.0011 µM.

Like-named read-outs stand apart in the source and are kept apart here.
